{"sequences": {"note": "By UniProt entry, the sequences of proteins in these tests, tags left out.", "UniProt P41146, whole entry": "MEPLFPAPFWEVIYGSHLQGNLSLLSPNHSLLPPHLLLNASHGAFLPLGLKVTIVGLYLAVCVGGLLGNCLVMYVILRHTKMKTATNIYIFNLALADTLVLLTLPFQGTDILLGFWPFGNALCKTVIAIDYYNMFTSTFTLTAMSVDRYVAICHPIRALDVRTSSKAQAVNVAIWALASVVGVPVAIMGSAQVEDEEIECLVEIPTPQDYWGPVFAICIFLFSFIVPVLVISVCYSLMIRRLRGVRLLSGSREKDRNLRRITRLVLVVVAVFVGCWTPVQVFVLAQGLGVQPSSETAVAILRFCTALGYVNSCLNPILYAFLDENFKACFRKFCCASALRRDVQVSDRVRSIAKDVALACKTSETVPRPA", "UniProt P35372, whole entry": "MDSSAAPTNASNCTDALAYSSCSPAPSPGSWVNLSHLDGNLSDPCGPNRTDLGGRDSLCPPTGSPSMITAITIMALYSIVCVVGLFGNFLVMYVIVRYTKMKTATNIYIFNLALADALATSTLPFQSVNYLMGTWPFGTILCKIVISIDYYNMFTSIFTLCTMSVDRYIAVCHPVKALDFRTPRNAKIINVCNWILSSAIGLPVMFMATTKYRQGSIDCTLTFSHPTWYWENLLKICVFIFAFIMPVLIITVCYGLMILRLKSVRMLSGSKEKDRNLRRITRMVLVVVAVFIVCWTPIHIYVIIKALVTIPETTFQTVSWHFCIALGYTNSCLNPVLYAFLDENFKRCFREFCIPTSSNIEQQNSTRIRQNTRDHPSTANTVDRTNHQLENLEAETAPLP"}, "source": "patent EP4768477A1", "about": "(Yichang Humanwell Pharmaceutical Co., Ltd., priority 2024, dated 2025)", "key": {"[1]": {"target": "hNOPr (Homo sapiens, UniProt P41146)", "assay": "Radioligand binding affinity test, [3H]-Nociceptin displacement on receptor cell membranes", "settings": "for Ki: read-out: Ki (nM) of Affinity of opioid receptor hNOPr, 3H-Nociceptin 0.5 nM, cell membranes containing human NOPr"}, "[2]": {"target": "hMOR (Homo sapiens, UniProt P35372)", "assay": "Agonistic function, cAMP method, 293-MOR cells", "settings": "read-out: hMOR EC50, forskolin"}}, "data": [{"smiles": "CCS(=O)(=O)NCCN1Cc2cc(F)c(F)cc2N(C2CCN([C@H]3CC[C@@H](C(C)C)CC3)CC2)C1=O", "note": "(relative stereo)", "values": [{"measurement": "Ki", "setting": "[1]", "value": 0.83, "unit": "nM"}, {"measurement": "EC50", "setting": "[2]", "value": 30, "unit": "nM"}]}, {"smiles": "CC(C)C1CCC(N2CCC(N3C(=O)N(CCNS(C)(=O)=O)Cc4cc(F)c(F)cc43)CC2)CC1", "note": "(stereo not shown)", "values": [{"measurement": "Ki", "setting": "[1]", "value": 1.75, "unit": "nM"}, {"measurement": "EC50", "setting": "[2]", "value": 22.8, "unit": "nM"}]}, {"smiles": "Cc1noc(Cn2c(=O)n(C3CCN([C@H]4CC[C@@H](C(C)C)CC4)CC3)c3cc(F)c(F)cc32)n1", "values": [{"measurement": "Selectivity hKOR/hNOPr", "setting": "[1]; ratio of Ki values hKOR/hNOPr", "value": 386}, {"measurement": "Selectivity hMOR/hNOPr", "setting": "[1]; ratio of Ki values hMOR/hNOPr", "value": 5.74}, {"measurement": "Ki", "setting": "[1]", "value": 3.01, "unit": "nM"}]}]}
